Earlier results, collected in patent publication US4898729A, “Treatment of hypertension, compounds and compositions for antihypertension and diuresis” (priority 1983, dated 1990).

Legend:
[1] = comparison with chlorothiazide having a value of 1; cited from earlier work
[2] = cited from earlier work

## CN1C(CSCC(F)(F)F)Nc2cc(Cl)c(S(N)(=O)=O)cc2S1(=O)=O (stereo not drawn) [Polythiazide]
[1]
  Approx. Natriuretic Activity: 200
[2]; Example 1 table
  Range diuretic dose: 4 to 8 mg
[2]; average daily dose
  Daily Diuretic Dose (average minimum diuretic dose): 8 mg
